# Reference: PMC10710878 (Journal of receptor and signal transduction research, 2022)
# Counter-ions that a name gives are not always drawn.
# Tested on: rat hippocampal CA3 epileptiform activity
# Type: cell-based
row,Compound,RE
1,"N=C(N)NC(=O)Cc1c(Cl)cccc1Cl [guanfacine, guanfacine hydrochloride]",0.45
2,Nc1cc(Cl)c(N=C2NCCN2)c(Cl)c1 [p-aminoclonidine],0.32
3,Cc1cc(C(C)(C)C)cc(C)c1CC1=NCCN1 [xylometazoline],0.20
